In ChEMBL document CHEMBL4002575, “Progress in the development of β-lactams as N-Acylethanolamine Acid Amidase (NAAA) inhibitors: Synthesis and SAR study of new, potent N-O-substituted derivatives” (Eur J Med Chem, 2017):

Legend:
[1] = biological target: T1, N-acylethanolamine-hydrolyzing acid amidase (Rattus norvegicus, UniProt Q5KTC7); assay: Inhibition of rat NAAA expressed in HEK cells after 30 mins; format: cell-based
T1 sequence (Q5KTC7 whole entry): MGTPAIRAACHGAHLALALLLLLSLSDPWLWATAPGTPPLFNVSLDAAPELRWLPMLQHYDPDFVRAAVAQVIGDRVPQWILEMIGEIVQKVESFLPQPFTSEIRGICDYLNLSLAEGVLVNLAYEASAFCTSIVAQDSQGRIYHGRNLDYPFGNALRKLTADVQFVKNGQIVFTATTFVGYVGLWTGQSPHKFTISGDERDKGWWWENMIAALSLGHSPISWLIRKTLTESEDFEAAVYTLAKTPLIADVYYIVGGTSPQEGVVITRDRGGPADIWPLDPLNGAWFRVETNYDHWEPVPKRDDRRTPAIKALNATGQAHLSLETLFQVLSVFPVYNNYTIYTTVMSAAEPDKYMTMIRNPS

[2] = species: Homo sapiens; assay: Selectivity ratio of IC50 for human acid ceramidase to IC50 for recombinant human spleen NAAA
Procedure, shortened: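 Ratio of h-AC IC50 to h-NAAA IC50, each the mean of three determinations in fluorogenic assays. The NAAA was recombinant human enzyme overexpressed in HEK293 cells, purified, then activated for 3 h at 37 °C at pH 4.5 (phosphate/citrate, 3 mM DTT, 0.1% Triton X-100). The NAAA substrate was PAMCA (hexadecanamide of 7-amino-4-methylcoumarin).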

IC50 [1] | Ratio IC50 [2] | Structure (SMILES)
28 nM | – | O=C(N[C@H]1CNC1=O)OCCCCC1CCCCC1
– | 340 | C[C@H]1[C@H](NC(=O)OCCCCC2CCCCC2)C(=O)N1Oc1ccc(S(C)(=O)=O)cc1
